The source of these data is patent US9598447B2, “Phosphorus-substituted quinoxaline-type piperidine compounds and uses thereof” (dated 2017).

Each structure is given as a SMILES string.

The target of test [1] is T1, human opioid receptor-like (ORL-1) (Homo sapiens (Human), UniProt P41146). Put plainly: ORL-1 receptor [35S]GTPγS functional binding assay. To be noted: for GTPγS Emax [mean ± SEM] ORL-1: relative to the effect elicited by nociceptin; for EC50: read-out: GTPγS EC50 [mean ± SEM] ORL-1. Background: Binding of GTPγS marks nucleotide exchange on a G protein.
For test [2], the target named is T2, kappa opioid receptor (Homo sapiens (Human), UniProt P41145). Put plainly: In vitro kappa-opioid receptor binding assay ([3H]-U69,593 displacement). To be noted: read-out: Ki [Average ± Std Deviation] Opioid Receptor Kappa; membranes from recombinant HEK-293 cells.
Test [3] addresses delta opioid receptor (Homo sapiens (Human), UniProt P41143). Briefly: In vitro delta-opioid receptor binding assay ([3H]-Naltrindole displacement). The note with it: read-out: Ki [Average ± Std Deviation] Opioid Receptor Delta; recombinant receptor expressed in CHO-K1 cells.
In test [4] the target is human μ-receptors (Homo sapiens (Human), UniProt P35372). Put plainly: Mu-opioid receptor [35S]GTPγS functional assay. To be noted: for EC50: read-out: GTPγS EC50 [mean ± SEM] Opioid Receptor Mu; for GTPγS Emax [mean ± SEM] Opioid Receptor Mu: relative to the effect elicited by DAMGO.
Test [5] deals with T2, kappa opioid receptor. Put plainly: Kappa-opioid receptor [35S]GTPγS functional assay. The note with it: read-out: GTPγS EC50 [mean ± SEM] Opioid Receptor Kappa.
Test [6] has as its target human μ-opioid receptors (Homo sapiens (Human), UniProt P35372). Put plainly: In vitro mu-opioid receptor binding assay ([3H]-diprenorphine displacement). To be noted: read-out: Ki [Average ± Std Deviation] Opioid Receptor Mu; membranes expressing human μ-receptors.
Test [7] has as its target T1, human opioid receptor-like (ORL-1). Put plainly: In vitro ORL-1 receptor binding assay ([3H]-nociceptin displacement). To be noted: read-out: Ki [Average ± Std Deviation] ORL-1; membranes from recombinant HEK-293 cells.

For orientation: EC50 means the midpoint of the concentration-response curve.

Take `O=c1c(NCCP(=O)(O)O)nc2ccccc2n1[C@H]1C[C@H]2CCC[C@@H](C1)N2[C@H]1C[C@@H]2CCC[C@@H](C2)C1`: the “GTPγS Emax [mean ± SEM] ORL-1” value in test [1] is recorded as 11.6 ± 0.6%.
For the compound `O=c1c(P(=O)(O)O)nc2ccccc2n1[C@H]1C[C@H]2CC[C@@H](C1)N2C12CC3CC(CC1C3)C2`, the “GTPγS Emax [mean ± SEM] ORL-1” value in test [1] is given as 81.7 ± 5.8%.
Same read-out and setting: under `C[C@@H]1C[C@@H]2C[C@H](C1)C[C@@H](N1[C@@H]3CCC[C@H]1C[C@@H](n1c(=O)c(N4CC=C(P(C)(=O)O)CC4)nc4ccccc41)C3)C2` stands 21.7 ± 3.7%; under `C[C@@H]1C[C@@H]2C[C@H](C1)C[C@@H](N1[C@@H]3CCC[C@H]1C[C@@H](n1c(=O)c(NCCP(=O)(O)O)nc4ccccc41)C3)C2`, 18.5 ± 1.4%.
Regarding `C[C@@H]1C[C@@H]2C[C@H](C1)C[C@@H](N1[C@@H]3CCC[C@H]1C[C@@H](n1c(=O)c(/C=C/P(=O)(O)O)nc4ccccc41)C3)C2`, the figures for the Ki in test [2] and in test [3] were 403 nM and 5590 nM, respectively. Further, the “GTPγS Emax [mean ± SEM] ORL-1” value in test [1] was 33.3 ± 0.8%. Also, the EC50 in test [4] and in test [5] was greater than 20000 nM each time.
With `C[C@@H]1C[C@@H]2C[C@H](C1)C[C@@H](N1[C@@H]3CCC[C@H]1C[C@@H](n1c(=O)c(P(=O)(O)OCOC(=O)c4ccccc4)nc4ccccc41)C3)C2`, the Ki in test [2] is 37.9 nM; in test [3], 5300 nM; in test [6], 396 nM. Further, the EC50 in test [1] is 13.8 nM; in test [4], greater than 20000 nM; in test [5], greater than 20000 nM. Further, the “GTPγS Emax [mean ± SEM] ORL-1” value in test [1] is recorded as 34.3 ± 0.7%.
Regarding `CCOP(=O)(OCC)c1nc2ccccc2n([C@H]2C[C@H]3CC[C@@H](C2)N3C23CC4CC(CC2C4)C3)c1=O`, the “GTPγS Emax [mean ± SEM] ORL-1” value in test [1] is recorded as 61.7 ± 2.0%. Moreover, the Ki in test [3] was greater than 20000 nM. In addition, the EC50 in test [4] and in test [5] was greater than 20000 nM throughout. Besides, in test [4], the “GTPγS Emax [mean ± SEM] Opioid Receptor Mu” value is −0.33 ± 0.67%.
On to `O=c1c(P(=O)(O)O)nc2ccccc2n1[C@H]1C[C@H]2CCC[C@@H](C1)N2[C@H]1C[C@@H]2CCC[C@@H](C2)C1`, for which the “GTPγS Emax [mean ± SEM] ORL-1” value in test [1] is listed as 21 ± 1%.
Take `CC1(C)[C@H]2CC[C@@H](CCN3[C@@H]4CCC[C@H]3C[C@@H](n3c(=O)c(P(=O)(O)O)nc5ccccc53)C4)[C@@H]1C2`: the Ki in test [2] was 43.7 nM; in test [3], greater than 20000 nM; in test [6], greater than 20000 nM; in test [7] it was 11.1 nM. Further, the concentration giving a half-maximal response (EC50) is 15 nM in test [1] and greater than 20000 nM in test [5]. Besides, in test [1], the “GTPγS Emax [mean ± SEM] ORL-1” value was determined as 40 ± 3%.
As to `O=c1c(P(=O)(O)O)nc2ccccc2n1[C@H]1C[C@H]2CCC[C@@H](C1)N2C1CCCCCCC1`, the “GTPγS Emax [mean ± SEM] ORL-1” value in test [1] is reported as 130 ± 7%. Also, in test [7], the Ki stood at 29.3 nM.
Turning to `C[C@@H]1C[C@@H]2C[C@H](C1)C[C@@H](N1[C@@H]3CCC[C@H]1C[C@@H](n1c(=O)c(P(=O)(O)O)nc4ccccc41)C3)C2`, the Ki turned out to be 267 nM in test [2] and 28.3 nM in test [6]. For the same compound, the “GTPγS Emax [mean ± SEM] ORL-1” value in test [1] was 55.0 ± 1.2%. Also, the EC50 in test [4] and in test [5] was greater than 20000 nM each time.
Turning to `CCOP(=O)(/C=C/c1nc2ccccc2n([C@H]2C[C@H]3CCC[C@@H](C2)N3[C@H]2C[C@@H]3C[C@@H](C)C[C@@H](C3)C2)c1=O)OCC`, the Ki came to 2.5 nM in test [2], 3980 nM in test [3], 29.8 nM in test [6] and 2.62 nM in test [7]. For the same compound, the 50% effective concentration (EC50) is 2.32 nM in test [1], greater than 20000 nM in test [4] and greater than 20000 nM in test [5]. Also, in test [1], the “GTPγS Emax [mean ± SEM] ORL-1” value worked out at 62 ± 5%.
For the compound `C[C@@H]1C[C@@H]2C[C@H](C1)C[C@@H](N1[C@@H]3CCC[C@H]1C[C@@H](n1c(=O)c(CCP(=O)(O)O)nc4ccccc41)C3)C2`, the Ki in test [2] was 78 nM; in test [3], 5910 nM; in test [6], 129 nM. Further, the results for the half-maximal effective concentration (EC50) in test [1], in test [4] and in test [5] were 3.94 nM, greater than 20000 nM and greater than 20000 nM, respectively. The “GTPγS Emax [mean ± SEM] ORL-1” value in test [1] stood at 34.8 ± 1.8%. The “GTPγS Emax [mean ± SEM] Opioid Receptor Mu” value in test [4] is listed as 0.33 ± 0.67%.
